AlphaSeq binding of Ab-95 light chain variants to a spike HR2 peptide

Antigen: PDVDLGDISGINAS, a 14-residue peptide of the SARS-CoV-2 spike HR2 region.

Each scFv is VH, the linker GGGGSGGGGSGGGGS, VL, as in the parent Ab-95, and differs from it in the CDRs of the light chain only.
VH: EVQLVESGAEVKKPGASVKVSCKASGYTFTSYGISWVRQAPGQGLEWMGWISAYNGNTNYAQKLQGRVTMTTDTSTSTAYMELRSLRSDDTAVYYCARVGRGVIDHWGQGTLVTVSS
VL: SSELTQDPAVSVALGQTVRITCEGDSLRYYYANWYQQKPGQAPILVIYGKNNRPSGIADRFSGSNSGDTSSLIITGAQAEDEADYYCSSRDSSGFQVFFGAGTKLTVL

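The library (AAYL52) carries one to three amino acid substitutions per variant, with no insertions or deletions. The assay is AlphaSeq: two haploid yeast populations carry antibody and antigen on their surface. The frequency of each diploid, read from paired DNA barcodes, reflects how well the two displayed proteins bind. Read counts were normalised to the haploid input and turned into Kd by a linear fit to BCL2-family pairs of known affinity, for each replicate. The assay was run in three technical replicates.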

Positions count from residue 1 of the parent VL; Y30P puts P in place of Y.
Every variant below is changed at Y30 of the VL (sequential numbering).
Values are apparent Kd, the geometric mean of the replicates that gave a signal; lower means stronger binding.
"not detected" marks a missing value. The strain was present, yet no cells mated with the target were sequenced in any replicate, which points to weak or no binding.
Three control strains display no target. For library AAYL52, 28% of the pairings with them gave a signal, with a median of 8.2 µM and one signal in twenty below 800 nM, so weak values seen in few replicates may be background.

changes,Kd,seen in
Y30P/P54R/S92H,40 µM,2/3
Y30T/S89R/G94H,not detected,0/3
Y30S/N33M/Q96T,380 nM,3/3
Y30Q/Y31T/P54S,4.4 nM,3/3
Y30P/R90D/F95Y,not detected,0/3
Y30Q/A32T/S55W,3.0 nM,3/3
Y30N,24 nM,3/3
R28E/Y30V/S93V,390 nM,3/3
S26H/R28D/Y30E,77 nM,3/3
Y30H/K50A/S92Y,11 nM,3/3
R28C/Y30Q/G94L,5.7 µM,2/3
R28S/Y30F/S92W,1.0 µM,3/3
G24I/Y30F/V97E,3.7 µM,1/3
R28A/Y30C/D91N,3.0 µM,3/3
Y30C/R53Y/Q96F,not detected,0/3
Y30Q/S55C/Q96K,3.3 nM,3/3
Y30G/K50A/F98D,320 nM,1/3
Y30A/P54N/S92W,33 nM,3/3
Y30G/S93K,20 nM,3/3
Y30V/G49E/S93M,3.6 µM,3/3
Y29P/Y30I/P54Q,11 µM,1/3
Y30G/R90L,18 nM,3/3
Y29M/Y30L/F98T,8.3 µM,2/3
Y30V/G49C/R53P,130 µM,1/3
Y30W/G94A/F98W,not detected,0/3
Y30I/Y31S/F98E,1.6 µM,3/3
Y30S/Y31T/D91V,22 nM,3/3
E23D/Y30S/D91A,63 nM,3/3
L27I/Y30I/V97Q,not detected,0/3
R28H/Y30T/S89P,34 µM,3/3
S26Y/Y30F/Q96H,2.1 µM,3/3
Y30Q/N51R/S93M,6.3 µM,3/3
Y29K/Y30L/N33Q,840 nM,2/3
Y30G/F98L,6.4 nM,3/3
D25G/Y30E/R90T,56 nM,3/3
Y30P/A32G/P54E,3.6 µM,3/3
Y30W/S92K/G94K,not detected,0/3
Y30R/N52Q/P54N,15 nM,3/3
S26Q/Y30P/P54V,130 nM,3/3
Y30I/R90F/G94C,15 µM,1/3
Y29T/Y30I/N52F,1.5 µM,3/3
Y30C/K50F/G94N,3.6 µM,2/3
S26D/Y30T/R90W,64 nM,3/3
Y30A/N51H/N52T,25 nM,3/3
Y30K/N51V/V97F,not detected,0/3
R28V/Y30P/F98T,130 nM,3/3
L27Q/Y30A/D91P,780 nM,3/3
L27P/Y30I/R90A,6.5 µM,1/3
S26V/Y30C,190 nM,3/3
S26V/Y30P/N52H,1.4 µM,3/3

The closing 8 entries, repeated:

changes,Kd,seen in
S26D/Y30T/R90W,64 nM,3/3
Y30A/N51H/N52T,25 nM,3/3
Y30K/N51V/V97F,not detected,0/3
R28V/Y30P/F98T,130 nM,3/3
L27Q/Y30A/D91P,780 nM,3/3
L27P/Y30I/R90A,6.5 µM,1/3
S26V/Y30C,190 nM,3/3
S26V/Y30P/N52H,1.4 µM,3/3

Data: MIT Lincoln Laboratory AlphaSeq set, Engelhart et al. 2022, doi:10.1038/s41597-022-01779-4, as distributed in FLAb.